# Laboratory results: US20060019241A1, “Na+ and CI-coupled transport system for endogenous opioid peptides” (priority 2004, published 2006)
# How the values were obtained:
# [1] = molecular target: Na+- and Cl--coupled transport system for endogenous opioid peptides (human cell lines ARPE-19, Tat-ARPE-19 and SK-N-SH) (human); assay: cell-based or functional assay
# [2] = molecular target: opioid peptide transport system of rat (rMC-1 Müller cell mRNA expressed in X. laevis oocytes; primary striatal neurons) (rat); assay: cell-based or functional assay
substance,measurement,setting,value
Deltorphin II (Tyr-D-Ala-Phe-Glu-Val-Val-Gly-NH2) (peptide),IC50 for inhibition of [3H]deltorphin II uptake in Tat-ARPE-19 cells,[1],38.8 mM
same,"Michaelis-Menten constant (Kt) of deltorphin II uptake in Tat-ARPE-19 cells, NaCl",[1],46 µM
same,"[3H]deltorphin II (25 nM) uptake in SK-N-SH cells, NaCl, 30 min, no inhibitor (pmol/30 min/mg protein)",[1],3
same,deltorphin II (125 nM) uptake in X. laevis oocytes injected with rMC-1 poly(A)+ mRNA,[2],7 fold
same,deltorphin II uptake in X. laevis oocytes injected with rMC-1 poly(A)+ mRNA,[2],8 fold
